The chains behind the UniProt entries cited, without tags or fusion partners. Where a name states a change or a piece, a line headed by the entry shows the natural chain unless it says otherwise.
UniProt P53341: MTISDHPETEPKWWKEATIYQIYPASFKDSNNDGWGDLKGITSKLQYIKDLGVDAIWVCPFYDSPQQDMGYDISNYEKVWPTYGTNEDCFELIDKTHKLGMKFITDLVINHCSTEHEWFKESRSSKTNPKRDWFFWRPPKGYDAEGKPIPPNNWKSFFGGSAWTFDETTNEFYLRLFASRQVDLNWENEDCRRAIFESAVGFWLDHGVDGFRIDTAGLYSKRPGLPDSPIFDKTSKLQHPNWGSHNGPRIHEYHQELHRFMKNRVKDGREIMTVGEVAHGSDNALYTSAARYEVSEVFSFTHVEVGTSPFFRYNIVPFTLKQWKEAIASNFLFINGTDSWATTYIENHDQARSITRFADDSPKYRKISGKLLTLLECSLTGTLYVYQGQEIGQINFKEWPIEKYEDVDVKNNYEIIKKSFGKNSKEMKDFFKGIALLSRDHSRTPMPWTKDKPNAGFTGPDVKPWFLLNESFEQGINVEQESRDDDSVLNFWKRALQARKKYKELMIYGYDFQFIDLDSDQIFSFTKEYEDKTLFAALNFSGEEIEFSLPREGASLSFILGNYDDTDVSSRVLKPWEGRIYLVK

In paper PMC10992144, “Construction of fatty acid derivatives from rubber seed oil as α-glucosidase inhibitors based on rubber seed oil” (Bioresources and Bioprocessing, 2022):

Target: T1, α-Glucosidase from recombinant yeast (Saccharomyces cerevisiae, UniProt P53341)
T1 construct: purchased Shanghai yuanye Bio-Technology Co. Ltd; host or cells: recombinant yeast
Experiment: biochemical
Details: 0.1 M phosphate buffer pH 6.9, 0.5% DMSO, 37 °C, α-PNPG; mean ± SD (n = 3)
Protocol: Fatty acids and their derivates were diluted in 0.1 M, pH = 6.9 phosphate buffer with 0.5% (v/v) DMSO as cosolvent, to prepare […] sample solutions. 50 μL sample solution and 100 μL 0.5 U α-glucosidase (prepared in the same phosphate buffer) were added into 1.5-mL plastic tubes, incubated at 37 °C, 10 min. Then, 50 μL 5 mM α-PNPG (prepared in the same buffer) was added into the plastic tube, incubated for another 10 min at 37 °C. At the end, 1 M Na2CO3 was added to terminate the reaction.
The Inhibitory score measures the inhibitory intensity of each sample on α-glucosidase, calculated by 1/IC50. Data were subjected to the one-way ANOVA analysis by SPSS 23.0, shown as mean ± SD (n = 3).

CCCCCCCC(=O)O [C8:0, Caprylic acid]
IC50: 98 ± 4.07 µM
